Curated experimental data: water solubility values

Data: OPERA 2.9 data sets, kmansouri/OPERA on GitHub.

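The numbers are reported measurements, compiled and curated for the OPERA QSAR suite. One number stands for a compound and property, with no spread given. Method, purity and exact conditions of the single measurements are not given. The measured form (salt, isomer or mixture) is not always the one drawn. Some entries may be limits or estimates that an upstream database listed as plain numbers.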

Solubility in water is on a log10 molar scale (set defined at 25 °C).

structure (SMILES),log S (log10 mol/L)
Cn1c(=O)n(CC=O)c(=O)c2[nH]cnc21,-1.388
O=C1NC(=O)C2C(N1)NC(=O)N2CO (stereo not given),-1.903
CC(C)CCCCCCCCCCOC(=O)c1ccc(C(=O)OCCCCCCCCCCC(C)C)c(C(=O)OCCCCCCCCCCC(C)C)c1,-7.18
C/C(=C(/CC(=O)O)C(=O)O)c1ccccc1,-2.522
CCCC(C)COC(=O)C(C)CCC (stereo not given),-4.639
C=C(C)C(CC(=O)O)C(=O)O (stereo not given),-0.321
O=c1[nH]c2ccccc2c(=O)n1CCCl,-3.575
FC(F)(Cl)c1ccc(C(F)(F)Cl)cc1,-5.56
CC(C)(O)C(=O)OCCc1ccccc1,-1.62
Nc1ccc2c(O)c(/N=N/c3ccc4c(O)c(/N=N/c5ccccc5)c(S(=O)(=O)[O-])cc4c3)c(S(=O)(=O)[O-])cc2c1.[Na+].[Na+],-2.21
Clc1ccc(Oc2c(Cl)c(Cl)cc(Cl)c2Cl)c(Cl)c1,-8.42
Cc1cccc([NH+]([O-])S(=O)(=O)c2ccc(N)cc2)n1 (stereo not given),-5.747
CCCCCCCCOC(=O)CCCCCCC,-6.71
CC(=O)OCCc1ccccc1,-2.232
N#CCC(=O)N1CCCCC1,-0.915
CCC(C)N1C(=O)c2ccccc2C1=O (stereo not given),-2.91
CC(C)NCC(O)COc1ccc(CCOCC2CC2)cc1 (stereo not given),-4.014
CN[C@@H]1CCc2[nH]c3ccc(C(N)=O)cc3c2C1,-3.296
CCn1c(O)c(N=Nc2ccc(C(=O)OCCOCCOC)cc2)c(C)c(C#N)c1=O,-7.03
NNC(=O)CCCCCCCCC(=O)NN,-3.044
C=C1C(=O)O[C@H]2C=C(CO)CCC=C(C)C[C@@H](OC(=O)C(C)CO)C12 (stereo not given in full),-2.244
CCCC1CCC(C2CCC(c3ccc(C)cc3)CC2)CC1.CCCC1CCC(C2CCC(c3ccc(C)cc3)CC2)CC1 (stereo not given),-7.104
O=c1[nH]cc(NS(=O)(=O)O)c(=O)[nH]1,-1.766
CCCSc1nc(N[C@@H]2C[C@H]2c2ccc(F)c(F)c2)c2nnn([C@@H]3C[C@H](OCCO)[C@@H](O)[C@H]3O)c2n1,-3.919
Nc1ccc(Nc2ccccc2)c2c1C(=O)c1ccccc1C2=O,-9.21
O=C(Nc1ccccc1)c1cc2ccccc2c(N=Nc2cc(Cl)ccc2Cl)c1O,-7.907
O=C(O)c1cccnc1Oc1cccc(C(F)(F)F)c1,-2.839
CCN(CCOC(C)OCC(C)C)c1ccc(N=Nc2ccccc2)cc1 (stereo not given),-7.09
CCOCCn1c(N2CCCN(C)CC2)nc2ccccc21,-2.322
CC(=O)C(C)=CC1C(C)=CCCC1(C)C (stereo not given),-4.093
CCCCC(CC)COC(=O)CC(O)C(=O)OCC(CC)CCCC (stereo not given),-6.212
CCCCOCC,-1.55
CC(=O)Nc1c(I)cc(I)c(C(=O)O)c1I,-2.64
Nc1cc(S(=O)(=O)O)ccc1S(=O)(=O)O,-1.812
CC(C)CCCCCC(=O)OCC(COC(=O)CCCCCC(C)C)(COC(=O)CCCCCC(C)C)COC(=O)CCCCCC(C)C,-7.144
C=CCNC(=S)NNc1ccc([N+](=O)[O-])cc1,-2.911
O=C(NCCCCCCNC(=O)OCCO)OCCO,-0.922
CCC(=O)OCCC(C)C,-2.87
CC(=O)OCCN(CCOC(C)=O)c1ccc(N=Nc2sc([N+](=O)[O-])cc2[N+](=O)[O-])cc1,-7.547
COC(=O)c1ccc(C(=O)O)cc1[N+](=O)[O-],-2.657
O=C(O)c1cc(Nc2ccccc2)c(C(=O)O)cc1Nc1ccccc1,-4.986
Clc1ccc(CO/N=C(\Cn2ccnc2)c2ccc(Cl)cc2Cl)c(Cl)c1.O=[N+]([O-])O,-5.411
Nc1ncnc2c1ncn2[C@@H]1O[C@H](CO)[C@@H](OP(=O)(O)O)[C@H]1O,-2.842
O=c1c2ccccc2ccc2ccccc12,-4.653
CCN(Cc1cccc(S(=O)(=O)[O-])c1)c1ccc(C(=C2C=CC(=[N+](CC)Cc3cccc(S(=O)(=O)[O-])c3)C=C2)c2ccc(O)cc2S(=O)(=O)[O-])cc1.[Na+].[Na+],-0.607
COc1ccc(CC2CC2)cc1,-3.541
CCCCCCCCC=CCCCCCCCC(=O)OCCCCCCCCCCCC,-6.955
Cc1ccc(S(=O)(=O)Oc2ccc(/N=N/c3cccc(Nc4ccc(S(=O)(=O)[O-])cc4[N+](=O)[O-])c3)c(C)c2)cc1.[Na+],-3.263
Clc1cc(Cl)c(Oc2ccccc2)cc1Cl,-6.58
NS(=O)(=O)c1ccc(N2CCC(c3ccc(Cl)cc3)=N2)cc1,-6.225
Nc1ncnc2c1ncn2Cc1ccccc1,-2.709
CCCCOCCCN1C(C(C(=O)Nc2cc(C(C)(C)C)ccc2SCC(CC)CCCC)N2C(=O)OC(C)(C)C2=O)=Nc2ccccc2S1(=O)=O (stereo not given),-6.976
CCCCCOC(=O)C(C)OC(C)=O (stereo not given),-0.819
C=CCCCCCCCCO,-3.048

A selection of 9 entries from above:

{"smiles": "Nc1ncnc2c1ncn2[C@@H]1O[C@H](CO)[C@@H](OP(=O)(O)O)[C@H]1O", "log S (log10 mol/L)": "-2.842"}
{"smiles": "CCCCCCCCC=CCCCCCCCC(=O)OCCCCCCCCCCCC", "log S (log10 mol/L)": "-6.955"}
{"smiles": "Nc1ccc(Nc2ccccc2)c2c1C(=O)c1ccccc1C2=O", "log S (log10 mol/L)": "-9.21"}
{"smiles": "O=C(O)c1cc(Nc2ccccc2)c(C(=O)O)cc1Nc1ccccc1", "log S (log10 mol/L)": "-4.986"}
{"smiles": "O=C(NCCCCCCNC(=O)OCCO)OCCO", "log S (log10 mol/L)": "-0.922"}
{"smiles": "CCCSc1nc(N[C@@H]2C[C@H]2c2ccc(F)c(F)c2)c2nnn([C@@H]3C[C@H](OCCO)[C@@H](O)[C@H]3O)c2n1", "log S (log10 mol/L)": "-3.919"}
{"smiles": "O=C1NC(=O)C2C(N1)NC(=O)N2CO", "stereo": "stereo not given", "log S (log10 mol/L)": "-1.903"}
{"smiles": "O=c1[nH]cc(NS(=O)(=O)O)c(=O)[nH]1", "log S (log10 mol/L)": "-1.766"}
{"smiles": "O=c1[nH]c2ccccc2c(=O)n1CCCl", "log S (log10 mol/L)": "-3.575"}